In paper PMC4031079 (PLoS Neglected Tropical Diseases, 2014):

Target: T1, scabies mite inactive serine protease paralogue SMIPP-S D1 (Sarcoptes scabiei, UniProt A0A834RHI5 27-263)
T1 construct: source: Pichia pastoris, secreted, purified (phenyl-Sepharose, SP-Sepharose)
T1 sequence: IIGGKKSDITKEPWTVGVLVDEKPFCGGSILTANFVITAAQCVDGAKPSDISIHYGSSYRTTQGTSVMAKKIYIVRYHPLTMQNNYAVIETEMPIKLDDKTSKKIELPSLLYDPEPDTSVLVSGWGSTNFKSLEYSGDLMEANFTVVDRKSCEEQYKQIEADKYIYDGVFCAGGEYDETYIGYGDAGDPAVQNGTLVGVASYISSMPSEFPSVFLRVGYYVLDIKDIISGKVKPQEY
Assay: ELISA
Conditions: both partners purified

B1: Human mannose binding lectin (MBL) (natural protein)
chain: ETVTCEDAQKTCPAVIACSSPGINGFPGKDGRDGTKGEKGEPGQGLRGLQGPPGKLGPPGNPGPSGSPGPKGQKGDPGKSPDGDSSLAASERKALQTEMARIKKWLTFSLGKQVGNKFFLTNGEIMTFEKVKALCVKFQASVATPRNAAENGAIQNLIKEEAFLGITDEKTEGQFVDLTGNRLTYTNWNEGEPNNAGSDEDCVLLLKNGQWNDVPCSTSHLAVCEFPI
notes: also called purified MBL; MBL in complex with MASPs; source: bought: Statens Serum Institute, Copenhagen, Denmark
B1: binds.
